Each structure is given as a SMILES string. This is a selection; strong and weak results do not stand in their true shares. Some results for these compounds are left out of this collection, so the calls shown say nothing about other tests. Calls of active or inactive are those of the source.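 How the source made its calls: active means inhibition above 30% in each of the two pooled mixtures holding the compound, so the lower value exceeds 30%; inactive means the rest.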

This assay is described as follows: blockers of serum C3 deposition on LPS – biochemical, ELISA, human serum, orthogonally pooled compounds, primary screen (AID 1235).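 Further: 0% = serum in Mg-EGTA without compound and 100% = EDTA serum blank.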 The note with it: Human serum alternative complement pathway, LPS-coated ELISA, tested in compound mixtures, at 5 µM, stronger effect = higher value. An outline of the steps:
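Medium: diluted human serum in Mg2+-EGTA GVB++. Assay system: human serum complement alternative pathway, C3 deposition onto LPS. Also added: Plate-bound LPS. Technique: Anti-C3 ELISA, OD 450 nm. Measure: percent inhibition. Incubation: 1 h at 37 °C. Dosing: 5 µM each compound, pools of ten, 50 µM per pool.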
Broadly, the inhibition is how much of the control response was suppressed. For the compound `O=C(OC1CN2CCC1CC2)C(CO)(c1ccccc1)c1ccccc1` (configuration not stated), the inhibition was inactive: 4.63%.
As to `CN(C)c1cccc(C(=O)NCC2(N(C)C)CCCCC2)c1`, the inhibition was inactive: 6%.

For the origin of these results see PubChem BioAssay AID1235 (PCMD, 2008).
